{
  "sequences": {"note": "By UniProt entry, the sequences of proteins in these tests, tags left out. Residues count along the entry.", "UniProt P28335, 33-458": "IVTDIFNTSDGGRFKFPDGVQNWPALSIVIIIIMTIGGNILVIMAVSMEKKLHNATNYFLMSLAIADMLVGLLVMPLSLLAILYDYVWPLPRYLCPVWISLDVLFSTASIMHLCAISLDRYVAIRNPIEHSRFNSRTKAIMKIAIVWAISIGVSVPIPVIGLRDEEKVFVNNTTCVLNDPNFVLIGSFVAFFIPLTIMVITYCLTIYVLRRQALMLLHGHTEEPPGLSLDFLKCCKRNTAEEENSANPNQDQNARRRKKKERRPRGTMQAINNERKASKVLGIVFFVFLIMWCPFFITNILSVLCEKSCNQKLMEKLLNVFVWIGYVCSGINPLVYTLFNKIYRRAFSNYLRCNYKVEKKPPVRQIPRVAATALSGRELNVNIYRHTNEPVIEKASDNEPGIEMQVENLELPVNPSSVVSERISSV", "UniProt P28223, whole entry": "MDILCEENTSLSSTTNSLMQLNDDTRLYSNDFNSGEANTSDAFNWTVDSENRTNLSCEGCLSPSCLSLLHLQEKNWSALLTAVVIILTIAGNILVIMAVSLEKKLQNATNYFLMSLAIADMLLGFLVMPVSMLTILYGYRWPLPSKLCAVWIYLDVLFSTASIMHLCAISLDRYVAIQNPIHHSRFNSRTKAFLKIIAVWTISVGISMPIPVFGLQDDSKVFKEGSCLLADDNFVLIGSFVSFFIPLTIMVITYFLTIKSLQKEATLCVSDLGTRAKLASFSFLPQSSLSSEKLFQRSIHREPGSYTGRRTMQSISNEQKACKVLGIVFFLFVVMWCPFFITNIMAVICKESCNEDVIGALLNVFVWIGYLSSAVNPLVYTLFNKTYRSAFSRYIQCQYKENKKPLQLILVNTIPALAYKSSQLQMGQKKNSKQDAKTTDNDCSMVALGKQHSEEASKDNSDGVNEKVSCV"},
  "source": "patent EP0572863A1",
  "about": "(dated 1993)",
  "key": {"[1]": {"target": "5HT1C-Rezeptor (Homo sapiens, UniProt P28335)", "test": "3H-Mesulergin binding test (test method c)"}, "[2]": {"target": "5HT₂-Rezeptor (Homo sapiens, UniProt P28223)", "test": "3H-Metanserin binding test (test method d)"}},
  "data": [
    {"smiles": "Clc1cccc(N2CCNCC2)c1", "note": "[mCPP, reference compound]", "values": [
      {"measurement": "IC50", "setting": "[1]", "result": 53, "unit": "nM"},
      {"measurement": "IC50", "setting": "[2]", "result": 319, "unit": "nM"}
    ]}
  ]
}
